The results in this text go back to patent US7491836B2, “Non-ionic surfactants for poorly soluble molecules” (AstraZeneca AB, priority 2003, dated 2009).

The test system of the data set is dog blood erythrocyte suspension. Description: Haemolytic activity, static method (erythrocyte suspension incubated with surfactant, haemoglobin analysed). The data set is classed as cell-based. Particulars: for Hemolysis: 40 min at 37° C. As for the experimental part:
A static method for evaluating the haemolytic activity of compounds was used. In short, dog blood is processed to an erythrocyte suspension, which is then incubated (40 min at 37° C.) with varying concentrations of a surfactant. The incubation is terminated by centrifugation after which the plasma, now containing different amounts of haemoglobin, can be removed and analysed. The results obtained for various MePEG- and PEG mono-12-acyloxy-stearate esters compared with a reference substance (Tween 80), are summarized in tables 3-4.

Take MePEG2000 12-palmitoyloxy-stearate: the Hemolysis runs as follows: (surfactant conc 1.0 mM) 0%; (surfactant conc 5.0 mM) 0%; (surfactant conc 10 mM) 0%.

Where the note is “surfactant conc 0.6 mM”, PEG600 mono-12-propionyloxy-stearate yielded a Hemolysis of 104%.

The substance PEG1500 mono-12-oleoyloxy-stearate displayed a Hemolysis (surfactant conc 0.8 mM) of 0%; a Hemolysis (surfactant conc 1.9 mM) of 0%; a Hemolysis (surfactant conc 3.7 mM) of 0%; a Hemolysis (surfactant conc 6.0 mM) of 0%; a Hemolysis (surfactant conc 8.2 mM) of 0%; a Hemolysis (surfactant conc 11.2 mM) of 0%.

On to PEG1500 mono-12-palmitoyloxy-stearate, for which the Hemolysis turned out to be 0% (surfactant conc 1.0 mM); 0% (surfactant conc 3.0 mM); 0% (surfactant conc 5.0 mM); 0% (surfactant conc 7.0 mM); 0% (surfactant conc 9.9 mM).

As for PEG1500 mono-12-myristoyloxy-stearate, the Hemolysis was determined as 0% (surfactant conc 3.1 mM); 0% (surfactant conc 6.2 mM); 0% (surfactant conc 7.7 mM); 0% (surfactant conc 10.8 mM); 0% (surfactant conc 12.3 mM); 0% (surfactant conc 15.4 mM).

As to MePEG1200 12-stearoyloxy-stearate, the Hemolysis (surfactant conc 1.0 mM) is listed as 0%, the Hemolysis (surfactant conc 5.0 mM) came out at 0% and the Hemolysis (surfactant conc 10 mM) was 0%.

With PEG1500 mono-12-lauroyloxy-stearate, the Hemolysis (surfactant conc 1.0 mM) stood at 0%, the Hemolysis (surfactant conc 1.5 mM) is listed as 0%, the Hemolysis (surfactant conc 3.0 mM) was determined as 11% and the Hemolysis (surfactant conc 5.0 mM) was 98%. Also, the “concentration causing total haemolysis” value (text summary of Tables 3-4) turned out to be 5000 µM.

On to MePEG2000 12-stearoyloxy-stearate, for which the Hemolysis reads like this: (surfactant conc 1.0 mM) 0%; (surfactant conc 5.0 mM) 0%; (surfactant conc 10 mM) 0.2%.

PEG1500 mono-12-stearoyloxy-stearate: the Hemolysis runs as follows: (surfactant conc 1.0 mM) 0%; (surfactant conc 3.1 mM) 0%; (surfactant conc 5.1 mM) 0%; (surfactant conc 7.2 mM) 0%; (surfactant conc 10.2 mM) 0%.

Take MePEG1200 12-palmitoyloxy-stearate: the Hemolysis by setting is: (surfactant conc 1.0 mM) 0%; (surfactant conc 5.0 mM) 0%; (surfactant conc 10 mM) 0%.
